Assays:
coronary arteries [1] = experiment: Intracoronary bolus injection of CGRP in patients with angina pectoris secondary to coronary artery narrowing, angiography; assay type: in vivo, humans
Method: Six humans with angina pectoris secondary to narrowing of the coronary arteries were selected for this procedure. In preparation for angioplasty,0.5 nmol of CGRP synthesized as described in Example 1 was dissolved in sterile normal saline to form a 0.004% solution of CGRP. The solution was loaded into a angiographic catheter by a microbore syringe. […] After the CGRP was injected as a bolus dose, the change in diameter of the coronary artery was measured by angiography immediately and 5-10 minutes after the injection. […] The improvement of the coronary artery diameter ranged between 30-80%, as measured by angiography. FIG. 1 is a representative angiograph showing the improvement in one patient who underwent the procedure.

coronary arteries [2] = experiment: Coronary spasms induced by neuropeptide Y and ergovine in mini pigs, intracoronary CGRP; assay type: in vivo
Method: (§1) Four mini pigs were anesthetized using Ketamine and xylazine, and maintained on isoflurane during coronary catheterization. After basal angiography, coronary spasms were induced by intracoronary administration of a combination of neuropeptide Y (2.5 nmol) and ergovine (50 μg). Normal saline (for control animals) and normal saline containing 0.50 nmol of CGRP prepared as in Example 1 were administered into coronary arteries through the catheter. The saline or saline/CGRP solution was injected into the coronary artery as a bolus dose. The change in diameter of the coronary artery was measured by digital angiography and miniature doplar probes.

[3] = Acute renal failure induced by clamping the renal arteries, intravenous CGRP; assay type: in vivo; conditions: rats, renal arteries clamped 50 minutes; intravenous 0.8 nmol/kg/hr CGRP in saline
Method: CGRP also has been infused intravenously into rats that have been prepped to experimentally simulate acute renal failure using known procedures. […] Similar results have been observed with reperfusion injury affecting the heart and brain.
One in each pair of rats was used as a test animal and one as a control. The induced rats were intravenously injected with normal saline (5 ml/hr) either (1) alone, as a control, or (2) containing the following: 0.8 nmol/kg/hr of CGRP prepared as in Example 1; 0.6 mmol/kg/hr of a free radical scavenger--either N-acetyl cysteine, obtained from Faulding Hospital Products, Inc., N.J., or amifostine (ethiofos, WR2721), 0.2 mmol/kg/hr, obtained from U.S. Bioscience, Inc., PA.
The combined therapy of CGRP and a free radical scavenger further increased the glomerular filtration rate and the urine output to 4-5 fold. Maintenance of satisfactory urine output and glomerular filtration are extremely important to recovery from acute renal failure.

coronary arteries [4] = experiment: Coronary spasms induced by neuropeptide Y and ergonovine in beagles, intracoronary CGRP; assay type: in vivo, dog (beagles)
Method: as §1, with “beagles were used in this procedure. The dogs” for “mini pigs”, “telazol,” for “Ketamine and”, “butrophanol, and” for “maintained on isoflurane during”, “catheterization was performed.” for “catheterization.”, “ergonovine” for “ergovine”, “0.25” for “0.50”

## calcitonin gene-related peptide (ACDTATCVTHRLAGLLSRSGGVVKNNFVPTNVGSKAF; Calcitonin gene-related peptide 1; UniProt P06881 83-119, looked up) [CGRP, 1, synthesized by Merrifield t-Boc solid-phase chemistry]
Coronary arteries [1]; 0.5 nmol intracoronary bolus, measured immediately and 5-10 minutes after injection, six patients with 40-90% blockage
  improvement of the coronary artery diameter, as measured by angiography: 30-80%
Coronary arteries [1]; after infusion of CGRP, preliminary studies
  blood flow in the coronary arteries (miniature doplers): significant increase of blood flow
Coronary arteries [1]; bolus dose or infusion into the coronary arteries of humans
  cardiac pain and electrocardiographic changes associated with ischemia: relieved cardiac pain and reversed electrocardiographic changes
Coronary arteries [1]; patients suffering from angina pain at the time of the procedure (4 out of 6), after intracoronary injection
  angina pain: the pain immediately subsided
Coronary arteries [2]; 0.50 nmol intracoronary bolus, digital angiography and miniature doplar probes
  increase in the diameter of the coronary arteries: 40%-50%
Coronary arteries [2]; pig model, spasms induced by chemicals (neuropeptide Y or ergonovine) or by the guidewire
  coronary spasms and coronary artery blood flow: completely abolished coronary spasms and re-established the coronary artery blood flow
[3]
  increase in glomerular filtration rate: 3 fold
  increase in urine output: 3 fold
Coronary arteries [4]; 0.25 nmol intracoronary bolus, digital angiography and miniature doplar probes
  increase in the diameter of the coronary arteries: 50%
Coronary arteries [4]; dog model, spasms induced by chemicals (neuropeptide Y or ergonovine) or by the guidewire
  coronary spasms and coronary artery blood flow: completely abolished coronary spasms and re-established the coronary artery blood flow
